# According to PubChem BioAssay AID1508638 (National Center for Advancing Translational Sciences (NCATS), 2021):
# The list shows a part of the results, in another mix than the full data. Results filed as inconclusive are left out. Calls of active or inactive are those of the source. Calls come from the whole dose curve; as a rule, active = well fitted inhibition curve with a large enough effect; inconclusive = small, poorly fitted or top-dose-only effect; inactive = flat fitted curve, though single readings scatter.
# System: NanoLuc luciferase (engineered Oplophorus gracilirostris luciferase)
# Experiment: Biochemical NLuc saturation counterscreen for small molecule modulators of PMP22 gene expression - Nano-Glo assay
# Settings: Secreted NLuc enzyme (filtered S16 cell medium), Nano-Glo luminescence; at 57.5 µM (top of the series)
# Source text: Assay Provider: Jim Inglese Ph.D. National Center for Advancing Translational Science, National Institutes of Health, Rockville, MD CMT is a heterogeneous group of neurological disorders that affect approximately 1 in 2,500 people. In particular, the most common form of CMT, CMT1A is genetically linked to the duplication of the PMP22 gene which leads to Schwann cell overexpression, thus manifesting itself as a typical case of dose-sensitive diseases. […] We can further discriminate the effect of all transcriptionally active molecules on PMP22 translation or stability with an assay that incorporates a short NLuc peptide (HiBiT) at the C-terminus of expressed PMP22 (S16(f8) PMP22-HiBiT) allowing alpha complementation and luminescence detection of membrane-associated PMP22 protein. […] Miniaturization of these assays to 1536-well plate format for quantitative high throughput screening (qHTS) yielded rich data sets immediately from the qHTS assay (S16(c9) Pmp22-F2sN), when compared with data from a cell viability assay (Cell TiterGlo) to identify compounds that decreased the output signals through cellular toxicity to streamline the selection process of actives for subsequent characterization using the HiBiT assay (S16(f8) PMP22-HiBiT). […]
# % is set by controls: 0 for no effect and ±100 for the full control effect.
smiles,measurement,value
CC(C)(C)c1ccc(C(=O)NCC2(N3CCOCC3)CCCCC2)cc1,"activity change, negative = inhibition",inactive: -3.07%
